# Reference: PubChem BioAssay (NCI)
#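 These data come from cells grown in 96-well plates and exposed to compound for 48 hours at five concentrations. GI50 is the concentration that inhibits growth by half. TGI: total growth inhibition.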
# Key:
# Assay in all cases: inhibition of tumour cell growth, NCI panel, 48 h
# 786-0 renal = test system: 786-0 renal
# A498 renal = test system: A498 renal
# A549 NSCLC = test system: A549 NSCLC
# ACHN renal = test system: ACHN renal
# BT-549 breast = test system: BT-549 breast
# CAKI-1 renal = test system: CAKI-1 renal
# COLO 205 colon = test system: COLO 205 colon
# DU-145 prostate = test system: DU-145 prostate
# EKVX NSCLC = test system: EKVX NSCLC
# HCC-2998 colon = test system: HCC-2998 colon
# HCT-116 colon = test system: HCT-116 colon
# HCT-15 colon = test system: HCT-15 colon
# HOP-62 NSCLC = test system: HOP-62 NSCLC
# HOP-92 NSCLC = test system: HOP-92 NSCLC
# HS 578T breast = test system: HS 578T breast
# HT29 colon = test system: HT29 colon
# IGROV1 ovarian = test system: IGROV1 ovarian
# K-562 leukemia = test system: K-562 leukemia
# KM12 colon = test system: KM12 colon
# LOX IMVI melanoma = test system: LOX IMVI melanoma
# M14 melanoma = test system: M14 melanoma
# MALME-3M melanoma = test system: MALME-3M melanoma
# MCF7 breast = test system: MCF7 breast
# MDA-MB-231 breast = test system: MDA-MB-231 breast
# MDA-MB-435 = test system: MDA-MB-435
# MDA-N = test system: MDA-N
# MOLT-4 leukemia = test system: MOLT-4 leukemia
# NCI-H226 lung = test system: NCI-H226 lung
# NCI-H23 lung = test system: NCI-H23 lung
# NCI-H322M lung = test system: NCI-H322M lung
# NCI-H460 lung = test system: NCI-H460 lung
# NCI-H522 lung = test system: NCI-H522 lung
# NCI/ADR-RES ovarian = test system: NCI/ADR-RES ovarian
# OVCAR-3 ovarian = test system: OVCAR-3 ovarian
# OVCAR-4 ovarian = test system: OVCAR-4 ovarian
# OVCAR-5 ovarian = test system: OVCAR-5 ovarian
# OVCAR-8 ovarian = test system: OVCAR-8 ovarian
# PC-3 prostate = test system: PC-3 prostate
# RPMI-8226 leukemia = test system: RPMI-8226 leukemia
# RXF 393 renal = test system: RXF 393 renal
# SF-268 CNS = test system: SF-268 CNS
# SF-295 CNS = test system: SF-295 CNS
# SF-539 CNS = test system: SF-539 CNS
# SK-MEL-2 melanoma = test system: SK-MEL-2 melanoma
# SK-MEL-28 melanoma = test system: SK-MEL-28 melanoma
# SK-MEL-5 melanoma = test system: SK-MEL-5 melanoma
# SK-OV-3 ovarian = test system: SK-OV-3 ovarian
# SNB-19 CNS = test system: SNB-19 CNS
# SNB-75 CNS = test system: SNB-75 CNS
# SR leukemia = test system: SR leukemia
# SW-620 colon = test system: SW-620 colon
# T-47D breast = test system: T-47D breast
# TK-10 renal = test system: TK-10 renal
# U251 CNS = test system: U251 CNS
# UACC-257 melanoma = test system: UACC-257 melanoma
# UACC-62 melanoma = test system: UACC-62 melanoma
# UO-31 renal = test system: UO-31 renal
smiles,measurement,setting,value
Cc1ccc2ccc(C)c(C)c2c1.O=[N+]([O-])c1cc([N+](=O)[O-])c(O)c([N+](=O)[O-])c1O,GI50,786-0 renal,> 100 µM
same,TGI,786-0 renal,> 100 µM
same,GI50,A498 renal,> 100 µM
same,TGI,A498 renal,> 100 µM
same,GI50,A549 NSCLC,> 100 µM
same,TGI,A549 NSCLC,> 100 µM
same,GI50,ACHN renal,> 100 µM
same,TGI,ACHN renal,> 100 µM
same,GI50,BT-549 breast,> 100 µM
same,TGI,BT-549 breast,> 100 µM
same,GI50,CAKI-1 renal,58.1 µM
same,TGI,CAKI-1 renal,> 100 µM
same,GI50,COLO 205 colon,> 100 µM
same,TGI,COLO 205 colon,> 100 µM
same,GI50,DU-145 prostate,> 100 µM
same,TGI,DU-145 prostate,> 100 µM
same,GI50,EKVX NSCLC,42 µM
same,TGI,EKVX NSCLC,> 100 µM
same,GI50,HCC-2998 colon,> 100 µM
same,TGI,HCC-2998 colon,> 100 µM
same,GI50,HCT-116 colon,> 100 µM
same,TGI,HCT-116 colon,> 100 µM
same,GI50,HCT-15 colon,> 100 µM
same,TGI,HCT-15 colon,> 100 µM
same,GI50,HOP-62 NSCLC,> 100 µM
same,TGI,HOP-62 NSCLC,> 100 µM
same,GI50,HOP-92 NSCLC,67.8 µM
same,TGI,HOP-92 NSCLC,> 100 µM
same,GI50,HS 578T breast,> 100 µM
same,TGI,HS 578T breast,> 100 µM
same,GI50,HT29 colon,> 100 µM
same,TGI,HT29 colon,> 100 µM
same,GI50,IGROV1 ovarian,> 100 µM
same,TGI,IGROV1 ovarian,> 100 µM
same,GI50,K-562 leukemia,> 100 µM
same,TGI,K-562 leukemia,> 100 µM
same,GI50,KM12 colon,> 100 µM
same,TGI,KM12 colon,> 100 µM
same,GI50,LOX IMVI melanoma,> 100 µM
same,TGI,LOX IMVI melanoma,> 100 µM
same,GI50,M14 melanoma,84.4 µM
same,TGI,M14 melanoma,> 100 µM
same,GI50,MALME-3M melanoma,> 100 µM
same,TGI,MALME-3M melanoma,> 100 µM
same,GI50,MCF7 breast,> 100 µM
same,TGI,MCF7 breast,> 100 µM
same,GI50,MDA-MB-231 breast,> 100 µM
same,TGI,MDA-MB-231 breast,> 100 µM
same,GI50,MDA-MB-435,> 100 µM
same,TGI,MDA-MB-435,> 100 µM
same,GI50,MDA-N,> 100 µM
same,TGI,MDA-N,> 100 µM
same,GI50,MOLT-4 leukemia,> 100 µM
same,TGI,MOLT-4 leukemia,> 100 µM
same,GI50,NCI-H226 lung,> 100 µM
same,TGI,NCI-H226 lung,> 100 µM
same,GI50,NCI-H23 lung,> 100 µM
same,TGI,NCI-H23 lung,> 100 µM
same,GI50,NCI-H322M lung,> 100 µM
same,TGI,NCI-H322M lung,> 100 µM
same,GI50,NCI-H460 lung,0.0375 µM
same,TGI,NCI-H460 lung,> 100 µM
same,GI50,NCI-H522 lung,70.2 µM
same,TGI,NCI-H522 lung,> 100 µM
same,GI50,NCI/ADR-RES ovarian,> 100 µM
same,TGI,NCI/ADR-RES ovarian,> 100 µM
same,GI50,OVCAR-3 ovarian,> 100 µM
same,TGI,OVCAR-3 ovarian,> 100 µM
same,GI50,OVCAR-4 ovarian,> 100 µM
same,TGI,OVCAR-4 ovarian,> 100 µM
same,GI50,OVCAR-5 ovarian,> 100 µM
same,TGI,OVCAR-5 ovarian,> 100 µM
same,GI50,OVCAR-8 ovarian,89.4 µM
same,TGI,OVCAR-8 ovarian,> 100 µM
same,GI50,PC-3 prostate,> 100 µM
same,TGI,PC-3 prostate,> 100 µM
same,GI50,RPMI-8226 leukemia,> 100 µM
same,TGI,RPMI-8226 leukemia,> 100 µM
same,GI50,RXF 393 renal,> 100 µM
same,TGI,RXF 393 renal,> 100 µM
same,GI50,SF-268 CNS,> 100 µM
same,TGI,SF-268 CNS,> 100 µM
same,GI50,SF-295 CNS,> 100 µM
same,TGI,SF-295 CNS,> 100 µM
same,GI50,SF-539 CNS,> 100 µM
same,TGI,SF-539 CNS,> 100 µM
same,GI50,SK-MEL-2 melanoma,> 100 µM
same,TGI,SK-MEL-2 melanoma,> 100 µM
same,GI50,SK-MEL-28 melanoma,> 100 µM
same,TGI,SK-MEL-28 melanoma,> 100 µM
same,GI50,SK-MEL-5 melanoma,> 100 µM
same,TGI,SK-MEL-5 melanoma,> 100 µM
same,GI50,SK-OV-3 ovarian,> 100 µM
same,TGI,SK-OV-3 ovarian,> 100 µM
same,GI50,SNB-19 CNS,> 100 µM
same,TGI,SNB-19 CNS,> 100 µM
same,GI50,SNB-75 CNS,> 100 µM
same,TGI,SNB-75 CNS,> 100 µM
same,GI50,SR leukemia,0.288 µM
same,TGI,SR leukemia,> 100 µM
same,GI50,SW-620 colon,> 100 µM
same,TGI,SW-620 colon,> 100 µM
same,GI50,T-47D breast,> 100 µM
same,TGI,T-47D breast,> 100 µM
same,GI50,TK-10 renal,> 100 µM
same,TGI,TK-10 renal,> 100 µM
same,GI50,U251 CNS,> 100 µM
same,TGI,U251 CNS,> 100 µM
same,GI50,UACC-257 melanoma,> 100 µM
same,TGI,UACC-257 melanoma,> 100 µM
same,GI50,UACC-62 melanoma,> 100 µM
same,TGI,UACC-62 melanoma,> 100 µM
same,GI50,UO-31 renal,> 100 µM
same,TGI,UO-31 renal,> 100 µM
